From ChEMBL document CHEMBL5726183, “Geminal substituted quinuclidine amide compounds as agonists of α-7 nicotonic acetylcholine receptors” (2019)

Amino acid sequences for entries named in this document (tags omitted). Residues count along the entry.
UniProt P36544, 23-502 limits assumed: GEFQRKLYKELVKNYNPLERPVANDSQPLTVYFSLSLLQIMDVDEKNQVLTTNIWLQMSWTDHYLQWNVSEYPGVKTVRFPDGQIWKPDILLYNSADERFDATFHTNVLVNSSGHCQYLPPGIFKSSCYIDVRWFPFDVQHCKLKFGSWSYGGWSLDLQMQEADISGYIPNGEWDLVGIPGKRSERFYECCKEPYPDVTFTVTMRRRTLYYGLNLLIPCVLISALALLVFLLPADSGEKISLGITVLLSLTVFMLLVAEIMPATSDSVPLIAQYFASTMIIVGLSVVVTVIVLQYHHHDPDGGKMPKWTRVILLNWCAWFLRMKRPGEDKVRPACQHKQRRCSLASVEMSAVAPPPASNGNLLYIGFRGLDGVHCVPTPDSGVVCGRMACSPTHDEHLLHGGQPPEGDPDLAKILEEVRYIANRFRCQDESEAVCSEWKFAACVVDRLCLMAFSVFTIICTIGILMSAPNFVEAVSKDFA

Molecular target: Neuronal acetylcholine receptor subunit alpha-7 (Homo sapiens, UniProt P36544)

SMILES | Ki
CC1(C)[C@H](NC(=O)c2cc3ccccc3cn2)C2CCN1CC2 | 0.52 µM
O=C(N[C@@H]1C2CCN(CC2)C12CC2)c1cc2cccnc2s1 | 1.5 µM
O=C(N[C@@H]1C2CCN(CC2)C12CC2)c1cc2cc(F)c(Cl)c(F)c2s1 | 0.31 µM
CC1(C)[C@H](NC(=O)c2nc3ccccc3[nH]2)C2CCN1CC2 | 15 µM
CC1(C)[C@H](NC(=O)c2cc3ccc4c(c3s2)CCCO4)C2CCN1CC2 | 0.18 µM
Cc1ccc2cc(C(=O)N[C@@H]3C4CCN(CC4)C3(C)C)sc2c1 | 0.38 µM
O=C(N[C@@H]1C2CCN(CC2)C12CC2)c1ccc2cccnc2c1 | 12 µM
O=C(N[C@@H]1C2CCN(CC2)C12CC2)c1cc2ccccc2cn1 | 1.5 µM
O=C(N[C@@H]1C2CCN(CC2)C12CC2)c1cc2cccc(N3CCOCC3)c2s1 | 1.1 µM
COc1ccc2sc(C(=O)NC3C4CCN(CC4)C34CC4)cc2c1 (single isomer, unassigned) | 8.2 µM and 20 µM
COc1cccc2cc(C(=O)N[C@@H]3C4CCN(CC4)C3(C)C)sc12 | 0.31 µM
CC(C)c1cccc2cc(C(=O)N[C@@H]3C4CCN(CC4)C3(C)C)sc12 | 0.5 µM
CC1(C)[C@@H](NC(=O)c2cc3ccc(F)cc3s2)C2CCN1CC2 | 22 µM
CC(C)(O)c1cccc2cc(C(=O)N[C@@H]3C4CCN(CC4)C3(C)C)sc12 | 2.2 µM
CC1(C)[C@@H](NC(=O)c2ccc3ccsc3c2)C2CCN1CC2 | 14 µM
CC1(C)[C@H](NC(=O)c2ccc3[nH]ccc3c2)C2CCN1CC2 | 6.9 µM
N#Cc1ccc2cc(C(=O)N[C@@H]3C4CCN(CC4)C34CC4)sc2c1 | 7.9 µM
O=C(N[C@@H]1C2CCN(CC2)C12CC2)c1ccc2occc2c1 | 0.4 µM
COc1c(Cl)ccc2cc(C(=O)N[C@@H]3C4CCN(CC4)C3(C)C)sc12 | 0.55 µM
CCOc1cccc2cc(C(=O)N[C@@H]3C4CCN(CC4)C3(C)C)sc12 | 0.58 µM
CC1(C)[C@H](NC(=O)c2cc3ccc(C4CC4)c(F)c3s2)C2CCN1CC2 | 2.7 µM
CC1(c2cccc3cc(C(=O)N[C@@H]4C5CCN(CC5)C4(C)C)sc23)CC1 | 1.4 µM
CN(C)c1ccc2cc(C(=O)N[C@@H]3C4CCN(CC4)C34CC4)sc2c1 | 6.9 µM
CC1(C)[C@H](NC(=O)c2cc3cccc(Cl)c3o2)C2CCN1CC2 | 3 µM
O=C(N[C@@H]1C2CCN(CC2)C12CC2)c1ccc2cc[nH]c2c1 | 0.24 µM
COc1c(C2CC2)ccc2cc(C(=O)N[C@@H]3C4CCN(CC4)C34CC4)sc12 | 2.6 µM
COc1ccc2cc(C(=O)N[C@@H]3C4CCN(CC4)C3(C)C)sc2c1Cl | 1.2 µM

SMILES | Ki
Cc1ccc2cc(C(=O)N[C@@H]3C4CCN(CC4)C34CC4)sc2c1C1CC1 | 0.24 µM
O=C(NC1C2CCN(CC2)C12CC2)c1cc2cc(Cl)c(Cl)cc2s1 (single isomer, unassigned) | > 30 µM and 14 µM
Cc1ccc2sc(C(=O)N[C@@H]3C4CCN(CC4)C3(C)C)cc2c1 | 3.5 µM
O=C(N[C@@H]1C2CCN(CC2)C12CC2)c1ccc2sccc2c1 | 0.32 µM
CC1(C)[C@H](NC(=O)c2ccc3occc3c2)C2CCN1CC2 | 0.925 µM
O=C(NC1C2CCN(CC2)C12CC2)c1cc2cc(Cl)ccc2s1 (single isomer, unassigned) | 3.1 µM and 3.3 µM
Cc1coc2ccc(C(=O)N[C@@H]3C4CCN(CC4)C3(C)C)cc12 | 1.1 µM
CC1(C)[C@H](NC(=O)c2cc3cccc(S(C)(=O)=O)c3s2)C2CCN1CC2 | 5.9 µM
O=C(N[C@@H]1C2CCN(CC2)C12CC2)c1cc2ccc(Cl)c(Cl)c2s1 | 0.0545 µM
COc1c(C2CC2)ccc2cc(C(=O)N[C@@H]3C4CCN(CC4)C3(C)C)sc12 | 6.5 µM
Cc1coc2ccc(C(=O)N[C@@H]3C4CCN(CC4)C34CC4)cc12 | 0.42 µM
CC1(C)[C@H](NC(=O)c2ccc(Cl)c(Cl)c2)C2CCN1CC2 | 4.9 µM
O=C(NC1C2CCN(CC2)C12CC2)c1ccc(Cl)cc1 (centres undefined) | 1.9 µM
CN(C)c1cccc2cc(C(=O)N[C@@H]3C4CCN(CC4)C34CC4)sc12 | 0.78 µM
O=C(N[C@@H]1C2CCN(CC2)C12CC2)c1ccc2occ(Cl)c2c1 | 0.31 µM
CC1(C)[C@H](NC(=O)c2cc3ccc4c(c3s2)OCCC4)C2CCN1CC2 | 0.81 µM
O=C(N[C@@H]1C2CCN(CC2)C12CC2)c1ccc2ccoc2c1 | 1.3 µM
CC(C)(O)c1cccc2cc(C(=O)N[C@@H]3C4CCN(CC4)C34CC4)sc12 | 1.4 µM
CC1(C)[C@H](NC(=O)c2cc3cc(C4CC4)ccc3s2)C2CCN1CC2 | 1.2 µM
Cc1csc2ccc(C(=O)N[C@@H]3C4CCN(CC4)C3(C)C)cc12 | 1.1 µM
CC1(C)[C@H](NC(=O)c2ccc3cccnc3c2)C2CCN1CC2 | 19 µM
CC1(C)[C@H](NC(=O)c2cc3cc(F)ccc3s2)C2CCN1CC2 | 0.41 µM
COc1cccc2cc(C(=O)N[C@@H]3C4CCN(CC4)C34CC4)sc12 | 0.058 µM
Cn1nc2c(c1-c1cc(F)c(F)c(F)c1)C[C@@H]1CCC[C@H]2N1C(=O)c1cnn2ccncc12 | 3.6 µM
O=C(N[C@@H]1C2CCN(CC2)C12CC2)c1cc2ccccc2[nH]1 | 0.81 µM
O=C(N[C@@H]1C2CCN(CC2)C12CC2)c1cc2cccc(CC(F)(F)F)c2s1 | 0.315 µM
O=C(N[C@@H]1C2CCN(CC2)C12CC2)c1cc2ccc(C3CC3)c(Cl)c2s1 | 3.4 µM

Values joined by “and” are separate entries in the source; they are usually repeats but may differ in a detail not shown here. Equal values may be shown once.
